# Data published in PubChem BioAssay AID504834 (National Center for Advancing Translational Sciences (NCATS), 2011).
# Hit rate of the full screen: of about 320,000 compounds, about 22,000 (6.9%) were called active. Only results without a clear call are listed here; the source files them as inconclusive. The call rests on the fitted dose curve; in most records, active means well fitted inhibition curve with a large enough effect; inconclusive means small, poorly fitted or top-dose-only effect, or another doubt; inactive means no such curve, though single readings can be large or run the other way.
# Test: Primary qHTS for delayed death inhibitors of the malarial parasite plastid, 96 hour incubation
# Conditions: P. falciparum luciferase reporter growth
# Potency means the concentration at half of the fitted maximal effect.
row,Structure (SMILES),Potency
1,Nc1ccc([As](=O)(O)c2ccc([N+](=O)[O-])cc2)cc1,inconclusive: 4.15 µM
2,CC(=O)NC(SC(=S)N(C)C)C(Cl)(Cl)Cl (stereo unspecified),inconclusive: 18.5 µM
3,C[C@@H]1C=CCP(=O)(Oc2ccccc2)O1 (stereo partly specified),inconclusive: 18.5 µM
4,CN(C)C(=O)Oc1noc2ccccc12,inconclusive: 2.94 µM
5,CC(=O)NC(SC(=S)N(CC(C)C)CC(C)C)C(Cl)(Cl)Cl (stereo unspecified),inconclusive: 5.86 µM
6,CC1=CC(=O)OC2CC3OC4C[C@@H](C)C5OC6CC7O[C@]8(C)C/C=C\C9OC%10CC%11OC(CC(C)CO)CC(O)[C@]%11(C)OC%10CC9OC8C[C@]7(C)O[C@]6(C)CCC5OC4C[C@]3(C)OC12 (stereo partly specified),inconclusive: 2.94 µM
7,CCN(N=Nc1nonc1N)c1nonc1N,inconclusive: 11.7 µM
8,O=[N+]([O-])c1cc([N+](=O)[O-])c(CCN2CCOCC2)c([N+](=O)[O-])c1,inconclusive: 0.117 µM
9,CCOP(=O)(Nc1ccccc1)OCC,inconclusive: 4.15 µM
10,COc1ccc(O)c2c(=O)c3c(OC)cc4c(c3oc12)C1C=COC1O4 (stereo unspecified),inconclusive: 3.29 µM
11,Cc1c2non([O-])c-2c(C)[n+](=O)[n+]1[O-],inconclusive: 10.4 µM
12,CN1CCCC(OC(=O)C(c2ccccc2)c2ccccc2)C1 (stereo unspecified),inconclusive: 11.7 µM
13,CC(C)=N/N=C(\N)N[N+](=O)[O-],inconclusive: 13.1 µM
14,Nc1ccc([As](=O)(O)c2ccc(N)cc2)cc1,inconclusive: 0.928 µM
15,O=[N+]([O-])c1cc([N+](=O)[O-])c(CCNc2ccccc2)c([N+](=O)[O-])c1,inconclusive: 11.7 µM
16,O=C(O)CNc1ccc([As](=O)(O)O)cc1,inconclusive: 0.928 µM
17,O=[N+]([O-])c1ncn(CCn2ncnc2[N+](=O)[O-])n1,inconclusive: 0.928 µM
18,CCC(C)N(CC(C)C)C(=S)SC(NC(C)=O)C(Cl)(Cl)Cl (stereo unspecified),inconclusive: 4.15 µM
19,CCN(CC)C(=S)SC(NC=O)C(Cl)(Cl)Cl (stereo unspecified),inconclusive: 0.0033 µM
20,NC(=O)Nc1ccc([As](=O)(O)O)cc1,inconclusive: 18.5 µM
21,CS(=O)(=O)c1cc([N+](=O)[O-])c2no[n+]([O-])c2c1,inconclusive: 4.15 µM
22,CCCOP(=S)(Nc1nc(N)cc(=O)[nH]1)OCCC,inconclusive: 18.5 µM
23,Cc1ccc(NCCc2c([N+](=O)[O-])cc([N+](=O)[O-])cc2[N+](=O)[O-])cc1,inconclusive: 2.33 µM
24,O=[As](O)(c1cccc(O)c1)c1cccc(O)c1,inconclusive: 2.08 µM
25,O=[As](O)(c1cccs1)c1cccs1,inconclusive: 6.57 µM
26,Nc1cccc([As](=O)(O)c2ccccc2)c1,inconclusive: 0.928 µM
